Experiments:
human hepatocytes [1] = experiment: Metabolic stability in Hμrel human hepatocyte co-culture assay
human hepatocytes [2] = experiment: Metabolism identification study in human hepatocytes; conditions: 5-MeO-DMT free base 10 μM, up to 120 minutes
Experimental: For incubations with cryopreserved hepatocytes, the 2 mM stock solution was diluted with Leibovitz L-15 medium to a concentration of 20 μM or 2 μM. An aliquot (250 μL) of the 20 μM and 2 μM test substance formulations was added to each hepatocyte incubation sample (250 μL), as appropriate, so that the final test substance concentration in the incubations was 10 μM or 1 μM, respectively, and incubations contained less than 1% (v/v) solvent.
Incubations were performed at ca. 37° C. in a shaking water bath (total incubation volume 0.5 mL). For 1 μM, incubations were terminated after 0, 5, 10, 20, 30, 60 and 120 minutes, by the addition of ice-cold acetonitrile (0.5 mL).
The samples were vortex mixed and centrifuged at ca 13,000 rpm for 10 minutes at room temperature. […]
Prior to sample analysis a 100 μL aliquot of each sample was evaporated to near dryness under a steady stream of nitrogen at room temperature, and subsequently reconstituted in 50 μL of mobile phase A (0.1% formic acid in water). Each sample (0, 30 and 120-minute, 10 μM) was analysed using accurate mass LC-MS to determine relative levels of parent compound at each time-point, and determine the profile of metabolites formed. Appropriate blank and control samples were also analysed. The 10 and 60-minute, 10 μM incubation samples were not analysed and were stored at −80° C. […]

5-Methoxyindole acetic acid [5-MIAA]
Relative LC/MS peak area (human hepatocytes [1]; 1 μM Hepatocytes, 1 h): 98% | Relative LC/MS peak area (human hepatocytes [1]; 1 μM Hepatocytes, 2 h): 100% | Relative LC/MS peak area (human hepatocytes [1]; 1 μM Hepatocytes, 4 h): 99% | Relative LC/MS peak area (human hepatocytes [1]; 1 μM Hepatocytes, 8 h): 95% | Relative LC/MS peak area (human hepatocytes [1]; 1 μM Hepatocytes, 24 h): 99% | Relative LC/MS peak area (human hepatocytes [1]; 1 μM Hepatocytes, 48 h): 88% | Relative LC/MS peak area (human hepatocytes [1]; 1 μM Hepatocytes, 72 h): 82% | Relative LC/MS peak area (human hepatocytes [1]; 1 μM Stromal cells, 4 h): 103% | Relative LC/MS peak area (human hepatocytes [1]; 1 μM Stromal cells, 8 h): 107% | Relative LC/MS peak area (human hepatocytes [1]; 1 μM Stromal cells, 24 h): 108% | Relative LC/MS peak area (human hepatocytes [1]; 1 μM Stromal cells, 48 h): 111% | Relative LC/MS peak area (human hepatocytes [1]; 1 μM Stromal cells, 72 h): 135% | Relative LC/MS peak area (human hepatocytes [1]; 10 μM Hepatocytes, 1 h): 97% | Relative LC/MS peak area (human hepatocytes [1]; 10 μM Hepatocytes, 2 h): 100% | Relative LC/MS peak area (human hepatocytes [1]; 10 μM Hepatocytes, 4 h): 103% | Relative LC/MS peak area (human hepatocytes [1]; 10 μM Hepatocytes, 8 h): 96% | Relative LC/MS peak area (human hepatocytes [1]; 10 μM Hepatocytes, 24 h): 96% | Relative LC/MS peak area (human hepatocytes [1]; 10 μM Hepatocytes, 48 h): 86% | Relative LC/MS peak area (human hepatocytes [1]; 10 μM Hepatocytes, 72 h): 75% | Relative LC/MS peak area (human hepatocytes [1]; 10 μM Stromal cells, 4 h): 101% | Relative LC/MS peak area (human hepatocytes [1]; 10 μM Stromal cells, 8 h): 106% | Relative LC/MS peak area (human hepatocytes [1]; 10 μM Stromal cells, 24 h): 97% | Relative LC/MS peak area (human hepatocytes [1]; 10 μM Stromal cells, 48 h): 103% | Relative LC/MS peak area (human hepatocytes [1]; 10 μM Stromal cells, 72 h): 115% | Relative Proportion of compounds identified (human hepatocytes [2]): 61%
